Measurements from patent US20220089592A1, “IMIDAZO[1,2-A]PYRIDINYL DERIVATIVES AS IRAK4 INHIBITORS” (priority 2019, published 2022).

The chains behind the UniProt entries cited, without tags or fusion partners.
UniProt Q9NWZ3, whole entry: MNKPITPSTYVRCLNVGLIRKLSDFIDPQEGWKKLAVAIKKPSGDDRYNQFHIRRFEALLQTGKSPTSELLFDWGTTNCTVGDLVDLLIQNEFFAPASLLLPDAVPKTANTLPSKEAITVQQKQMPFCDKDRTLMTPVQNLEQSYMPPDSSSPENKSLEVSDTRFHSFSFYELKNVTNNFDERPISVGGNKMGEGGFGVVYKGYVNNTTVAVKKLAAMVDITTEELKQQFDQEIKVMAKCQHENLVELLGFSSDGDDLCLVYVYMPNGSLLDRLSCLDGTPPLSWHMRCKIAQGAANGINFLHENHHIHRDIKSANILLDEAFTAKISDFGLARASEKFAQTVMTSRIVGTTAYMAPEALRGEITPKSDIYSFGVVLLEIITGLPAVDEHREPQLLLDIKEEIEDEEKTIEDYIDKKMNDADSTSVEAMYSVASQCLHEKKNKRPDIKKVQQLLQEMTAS

How the values were obtained:
IRAK4 [1] = biological target: T1, IRAK4 (Homo sapiens, UniProt Q9NWZ3); test: 2-hour 10 μM ATP Biochemical Assay (MesoScale Detection format; IRAK4 phosphorylation of biotin labeled IRAK1 activation loop peptide); settings: IRAK4 MSD BIOCHEMICAL (10 μM ATP) IC50 (μM), 1 nM IRAK4, 2 hours
IRAK4 [2] = biological target: T1, IRAK4; test: 2-hour 1 mM ATP IRAK4 Biochemical assay (as above, but with 100 pM IRAK4 and 1 mM ATP); settings: IRAK4 MSD BIOCHEMICAL (1 mM ATP) IC50 (μM), 100 pM IRAK4, 2 hours

`COc1cc(NC(=O)c2cccc(C(F)(F)F)n2)cn2cc(C3CCOCC3)nc12` [Example 105, N-(8-methoxy-2-tetrahydropyran-4-yl-imidazo[1,2-a]pyridin-6-yl)-6-(trifluoromethyl)picolinamide] gave an IC50 (IRAK4 [1]) of 0.006 µM and an IC50 (IRAK4 [2]) of 0.015 µM.
